# uPA surface inh: blocks generation of uPA at the cell surface | cell surface uPA generation assay, qHTS | Potency, µM (doses to about 38.3 µM), for the others: top-dose activity change, negative = inhibition, usual class: inhibitors | actives 0.31% (n = 330,000) | AID 540303; active = well fitted inhibition curve with a large enough effect; inconclusive = small, poorly fitted or top-dose-only effect; inactive = no such curve, though single readings can be large or run the other way; tested in mouse RAW 264.7 cells; note: potency is the fitted concentration of half-maximal effect; % is set by controls: 0 for no effect and ±100 for the full control effect; nearly all actives have a fitted effect of over 55% in size
# miR-21 reporter: raises the signal of a miR-21 reporter; Potency, µM (doses to about 38.3 µM), inactives show top-dose reporter change, positive = more light; HeLa miR-21 FLuc reporter, luciferase, 48 h; AID 2288; 340,000 tested, under 10 active; active = well fitted rising curve with a large enough effect; inconclusive = small, poorly fitted or top-dose-only effect; inactive = no such curve, though single readings can be large or run the other way;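 further: % of control where 0% means no effect; miR-21 action dims this reporter so a rising signal means less miR-21 action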
#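 HeLa miR-21-FLuc reporter line, endogenous miR-21; 2000 cells/well in DMEM/10% FBS; compound titration up to ~40uM final, 48 h, 37 degree Celsius; luciferase detection reagent, 15 min lysis, CCD luminescence.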
# TDP1 cell CPT: DT40-hTDP1 cell growth loss with CPT; chicken DT40 Tdp1-/-;hTDP1 cells + 20 nM CPT, ATP luminescence, 48 h; actives 12% (n = 420,000); Potency, µM (top dose mostly 46.2 µM), inactives show top-dose activity change, negative = growth inhibition, hits mostly inhibitors; note: potency is the fitted concentration of half-maximal effect; % is set by controls: 0 for no effect and ±100 for the full control effect; nearly all actives have a fitted effect of over 55% in size
#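 Chicken DT40 Tdp1-/- cells stably complemented with human TDP1 were seeded at 400 cells/well in medium containing 20 nM camptothecin, exposed to pin-transferred compounds, and grown at 37 °C for at least 48 hr. Viability was read as ATP luminescence.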
# DT40 TDP1 no CPT: qHTS for Inhibitors of human tyrosyl-DNA phosphodiesterase 1 (TDP1): qHTS in cells in absence of CPT; Potency, µM (doses to about 46.2 µM), without a hit: at the top dose activity change, negative = growth inhibition, usual class: inhibitors; DT40 Tdp1-/- hTDP1 cells, no CPT, ATP luminescence, 48 h; actives 15% (n = 420,000); note: potency is the fitted concentration of half-maximal effect; % is set by controls: 0 for no effect and ±100 for the full control effect; nearly all actives have a fitted effect of over 55% in size
#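 Compound effects on proliferation are scored in DT40 Tdp1-/-;hTDP1 cells in the absence of CPT. ATP levels (CellTiter-Glo luminescence) are recorded after a ≥48 hr, 37 °C incubation.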
# TDP1 inh: TDP1 (human) enzyme inhibition | recombinant TDP1, AlphaScreen DNA substrate cleavage | Potency, µM (highest dose often 130 µM), for the others: at the top dose activity change, negative = inhibition, hits mostly inhibitors | actives 0.28% (n = 350,000); note: potency is the fitted concentration of half-maximal effect; % is set by controls: 0 for no effect and ±100 for the full control effect; nearly all actives have a fitted effect of over 40% in size
#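 Signal: AlphaScreen proximity between streptavidin donor and anti-FITC acceptor beads on intact substrate. Reaction: Tdp1 1 nM, substrate 15 nM final, 5 min RT after 15 min compound preincubation.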
# Starred values were filed as active, the others as inactive; ? = inconclusive; . = not tested or not shown; [ ] = another dose, or the depositor's remark. Sampled rows, rich in hits. Any-hit rate of the full collection: about 16%. Unless noted, calls come from the whole dose curve; as a rule, active = well fitted curve in the direction sought with a large enough effect; inconclusive = small, poorly fitted or top-dose-only effect, or another doubt; inactive = no such curve, though single readings can be large; an effect the other way counts as inactive or inconclusive.
Structure	DT40 TDP1 no CPT	TDP1 inh	uPA surface inh	miR-21 reporter	TDP1 cell CPT
CCc1ccc(CN(Cc2ccco2)c2cnc(S(C)(=O)=O)nc2C(=O)Nc2ccccc2Cl)cc1	?	7%	.	0%	?
CCS(=O)(=O)c1ncc(N(Cc2ccco2)Cc2sccc2C)c(C(=O)Nc2cc(C)ccc2C)n1	21µM*	3%	.	2%	?
Cc1ccc(NC(=O)c2nc(S(C)(=O)=O)ncc2N(Cc2cccc(F)c2)Cc2ccco2)cc1C	?	7%	.	1%	?
Cc1ccc(NC(=O)c2nc(S(C)(=O)=O)ncc2N(Cc2ccco2)Cc2cccs2)c(C)c1	21µM*	5%	.	11%	?
COc1ccc(/C=C(/C(=O)N2CCCCC2C(=O)O)c2ccc(OC)c(OC)c2)cc1 (centres undefined)	-10%	1%	14%	.	-10%
CCOc1ccccc1N(CC(=O)O)S(=O)(=O)c1ccc(C)cc1	-2%	2%	1%	-2%	-1%
Cc1cccc(C)c1NC(=O)COC(=O)C1CC(=O)N(Cc2ccccc2)C1 (centres undefined)	1%	-5%	0%	-6%	0%
Cc1cc(C(=O)Nc2nnc(C(F)(F)F)s2)cs1	-27%	-1%	0%	-20%	?
CCCCNc1nc(C)nc2c1nc(-c1ccccc1)n2C(C)CCCN(CC)CC (centres undefined)	.	5%	.	.	.
COc1ccc(-c2noc(COc3ccc4ccccc4c3Br)n2)cc1OC	-13%	-1%	3%	-2%	-25%
CCS(=O)(=O)c1ncc(N(Cc2cccc(F)c2)Cc2ccco2)c(C(=O)Nc2ccccc2Cl)n1	6.5µM*	8%	.	-2%	?
COc1ncccc1-c1cc2nc(NCCCN(C)C)n(C)c(=O)c2s1	8.2µM*	.	.	.	8.2µM*
Cn1c(NCCc2ccncc2)nc2cc(-c3cccc(Cl)c3)sc2c1=O	-14%	.	.	.	-16%
CN(C)CCCNc1nc2cc(-c3ccc4c(ccn4C)c3)sc2c(=O)n1C	?	.	.	.	21µM*
CC(C)=C(C)c1cc2nc(NCCCN(C)C)n(C)c(=O)c2s1	-22%	.	.	.	0%
Cc1ccc(F)cc1-c1cc2nc(NCCCN(C)C)n(C)c(=O)c2s1	16µM*	.	.	.	23µM*
COCC(=O)Nc1cc(C(=O)N2CCOc3ccccc3C2)cc2nc(-c3cccnc3)n(C)c12	-9%	.	.	.	-11%[9.04 µM]
Cc1nc(N(C)C)c2sc(=S)n(Cc3ccccc3)c2n1	7%	-6%	4%	1%	12%
CCc1ccc(C(=O)N2CCCN(C)CC2)s1	2%	0%	2%	0%	16%
COC(=O)CN1C(=O)C2(C(C#N)=C(N)Oc3c2c(C)nn3-c2ccccc2)c2ccccc21 (centres undefined)	21µM*	2%	-17%	-9%	?

# 4 consecutive records already listed, quoted:
Structure	DT40 TDP1 no CPT	TDP1 inh	uPA surface inh	miR-21 reporter	TDP1 cell CPT
CCS(=O)(=O)c1ncc(N(Cc2cccc(F)c2)Cc2ccco2)c(C(=O)Nc2ccccc2Cl)n1	6.5µM*	8%	.	-2%	?
COc1ncccc1-c1cc2nc(NCCCN(C)C)n(C)c(=O)c2s1	8.2µM*	.	.	.	8.2µM*
Cn1c(NCCc2ccncc2)nc2cc(-c3cccc(Cl)c3)sc2c1=O	-14%	.	.	.	-16%
CN(C)CCCNc1nc2cc(-c3ccc4c(ccn4C)c3)sc2c(=O)n1C	?	.	.	.	21µM*

# The results go on:
Structure	DT40 TDP1 no CPT	TDP1 inh	uPA surface inh	miR-21 reporter	TDP1 cell CPT
COC(=O)CN1C(=O)C2(C(C#N)=C(N)Oc3n[nH]c(-c4cccs4)c32)c2ccccc21 (centres undefined)	-22%	6%	2%	-1%	7%
COc1ccc(C2CC(=O)C3=C(C2)NC(C)=C(C(=O)Nc2ccccc2C)C3c2coc3ccc(C)cc3c2=O)cc1OC (centres undefined)	?	6%	.	9%	21µM*
CCCCNC(=S)Nc1ccc(Oc2ccccc2)cc1	21µM*	3%	3%	-8%	?
CC(C)CCNC(=S)Nc1ccc([N+](=O)[O-])cc1	?	0%	-20%	28%	?
CCCCNC(=S)Nc1ccc([N+](=O)[O-])cc1	23µM*	1%	-15%	25%	?
CC(C)OC(=O)c1cc(NC(=S)Nc2ccc([N+](=O)[O-])cc2)cc(C(=O)OC(C)C)c1	12µM*	3%	1%	-11%	9.2µM*
O=C(NC(NNc1ccc([N+](=O)[O-])cc1)(C(F)(F)F)C(F)(F)F)c1ccc(F)cc1	18µM*	5%	-1%	29%	23µM*
COC(=O)C1C(c2ccc(OC)cc2)C(C(=O)OC)S(=O)(=O)C(CCN2CCCCC2)S1(=O)=O (centres undefined)	4%	3%	4%	2%	0%
